# Measurements as given in ChEMBL document CHEMBL1123303, “Synthesis of 2-(4-substituted-1-piperazinyl)benzimidazoles as H1-antihistaminic agents” (J Med Chem, 1986).
# Chains of the proteins cited; added tags and fusions are not shown.
# UniProt P31389, whole entry, looked up: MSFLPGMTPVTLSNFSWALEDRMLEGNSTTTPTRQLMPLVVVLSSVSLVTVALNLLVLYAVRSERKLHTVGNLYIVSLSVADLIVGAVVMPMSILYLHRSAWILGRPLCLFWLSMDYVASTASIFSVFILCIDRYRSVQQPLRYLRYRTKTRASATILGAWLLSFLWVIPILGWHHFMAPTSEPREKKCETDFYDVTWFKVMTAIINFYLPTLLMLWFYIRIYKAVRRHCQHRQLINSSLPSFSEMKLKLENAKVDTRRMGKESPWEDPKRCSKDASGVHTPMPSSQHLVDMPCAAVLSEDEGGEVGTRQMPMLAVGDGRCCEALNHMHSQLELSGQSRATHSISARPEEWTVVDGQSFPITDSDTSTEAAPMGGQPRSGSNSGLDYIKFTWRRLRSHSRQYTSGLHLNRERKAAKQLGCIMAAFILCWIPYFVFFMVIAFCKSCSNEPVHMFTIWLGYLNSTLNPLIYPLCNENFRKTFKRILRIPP
# Biological target: Histamine H1 receptor (Cavia porcellus, UniProt P31389)
# Assay: In vitro inhibition of histamine-induced contractions in guinea pig ileum
# Type: functional, tissue-based
structure (smiles),measurement,value
CCNCCn1c(N2CCN(C)CC2)nc2ccccc21,IC50,0.29 µM
